By inhibition is commonly meant the share of the control response that was lost under treatment.

Each structure is given as a SMILES string. The list shows a part of the results, in another mix than the full data. Activity calls are given as the source filed them.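 Rule for the calls: active = inhibition of the reporter signal at or above 50%; inactive = inhibition below 50%.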

The assay can be described thus: inhibitors of poly I:C-induced TLR3 signaling, primary screen, cell-based, poly I:C stimulus, luciferase, 10K MLSCN set (AID 602277). Conditions: HEK293-TLR3 RL24 IRF3 luciferase reporter, at 10 µM, active compounds read high. In general terms: A reporter such as luciferase makes a cellular process visible.
In the case of `CP(=S)(Nn1cnnc1)Oc1ccccc1` (stereo not given), the inhibition was inactive: 15.7%. With `Cc1ccc(C)c(NP(C)(=O)Oc2ccccc2)c1` (stereo not given) the figure was inactive: 29.7%; with `CN(C)CCOC(=O)C(O)(c1ccccc1)C1CCCCC1` (stereo not given), inactive: 10.8%.

`CP(=O)(Nc1ccc2c(c1)OCCO2)Oc1ccccc1` (stereo not given): the inhibition is inactive: 11.2%.

Take `CP(=O)(Nc1ccccn1)Oc1ccccc1` (stereo not given): the inhibition was inactive: 19.9%.

(Values after PubChem BioAssay AID602277 (University of Pittsburgh Molecular Library Screening Center, 2012).)
